## Yeast mating assay 2: variants of the scFv Ab-91

Binding partner: SARS-CoV-2 spike HR2 peptide, sequence PDVDLGDISGINAS.

Parent scFv Ab-91: VL joined to VH by a (GGGGS)3 linker. Changes lie in the heavy chain CDRs alone.
VL: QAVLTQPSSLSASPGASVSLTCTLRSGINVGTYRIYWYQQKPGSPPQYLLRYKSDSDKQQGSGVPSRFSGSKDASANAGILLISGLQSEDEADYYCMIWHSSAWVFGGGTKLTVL
VH: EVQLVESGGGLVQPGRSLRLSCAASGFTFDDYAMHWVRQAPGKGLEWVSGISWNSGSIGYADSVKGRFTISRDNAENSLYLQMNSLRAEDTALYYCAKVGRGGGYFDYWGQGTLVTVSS

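In library AAYL51, one, two or three CDR residues were substituted; doubles and triples were drawn at random. Affinity was read by AlphaSeq, a pooled yeast mating assay with surface-displayed partners. After mating in shaken culture at 30 °C for 16 h, diploids were selected and their barcode pairs sequenced. Read counts were normalised to the haploid input and turned into Kd by a linear fit to BCL2-family pairs of known affinity, for each replicate. Mating was done three times.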

Variants are written as CDR1, CDR2 and CDR3 of the heavy chain (limits as in the source). Parent: GFTFDDYAMH, GISWNSGSIGYADSVK, VGRGGGYFDY. This list gathers variants with a substitution at F29 (VH, numbered from residue 1). Kd is apparent (estimated from mating counts) and averaged on the log scale over replicates with a signal. Smaller is tighter. A pair that was not seen in any replicate is written "no signal"; this usually means weak binding, but a binder can also be missed. Background: pairings of library AAYL51 with three empty control strains gave a value in 21% of cases (median 34 µM, 5th percentile 1.8 µM). Values in that range, when seen in few replicates, are hard to tell from nonspecific mating.

For GFTLDDRAMH | GISWNSGSIGYADSVK | VGRQGGYFDY, the assay gave no signal (0 of 3 replicates). The variant GFTRDDYAMH | GILWNSGSIGYADHVK | VGRGGGYFDY showed 32 µM (2 of 3 replicates). The variant GFTNVDYAMH | GISWNSGSIGYADSVK | EGRGGGYFDY showed 480 µM (1 of 3 replicates). The variant NFTYDSYAMH | GISWNSGSIGYADSVK | VGRGGGYFDY gave no signal (0 of 3 replicates). For GFTADDYAAH | GISWNSGGIGYADSVK | VGRGGGYFDY, the assay gave no signal (0 of 3 replicates). For GFTPDDYAMH | GISWNSGSIGYADSVK | VGRGGGYFAF, the assay gave no signal (0 of 3 replicates). For FFTYDDYAMH | GASWNSGSIGYADSVK | VGRGGGYFDY, the assay gave 190 µM (2 of 3 replicates).

With GFTHDDYAMH | GISWNSGSIGYADSVK | KGNGGGYFDY the result was 12 µM (1 of 3 replicates). For GFTHMDYAMH | GISWNSGSIGYADSVK | VGRGGGPFDY, the assay gave 7.4 µM (1 of 3 replicates). The variant GFTWDDYAMH | GICWNSGSIGYHDSVK | VGRGGGYFDY showed 47 µM (2 of 3 replicates). The variant GFTLDDYQMH | GISWNSGSIGYAMSVK | VGRGGGYFDY gave no signal (0 of 3 replicates). The variant GFTMDDYAMI | GISWNSGSIGYADSVM | VGRGGGYFDY gave 380 nM (3 of 3 replicates). The variant GFTKDDYAMH | GISWNSGSIGYADSVK | VYRGGGYFFY gave 3.3 µM (1 of 3 replicates). The variant GFTNDDYAMH | GDSWNSGSIRYADSVK | VGRGGGYFDY gave 100 µM (2 of 3 replicates).

The variant GFTMDDYAMH | GISWNSGSIGVADSVK | LGRGGGYFDY showed no signal (0 of 3 replicates). The variant GFTDDDFAMH | GISWNSGSIGPADSVK | VGRGGGYFDY gave no signal (0 of 3 replicates). The variant GFTDDDYAMH | GGSWNSNSIGYADSVK | VGRGGGYFDY showed 97 µM (2 of 3 replicates). The variant GFTLDDYAMH | RISWNSGSIGYADSVK | VGRHGGYFDY gave 24 µM (2 of 3 replicates). For GATSDDYAMH | GISWNSGSIGYADSVK | VGRGGGYFDV, the assay gave 250 µM (2 of 3 replicates). The variant GFTRDDYAMH | GISWNGGSIGYADSVK | VPRGGGYFDY gave no signal (0 of 3 replicates). The variant GFTKDDYAMH | GISWNSGSQGYADSVK | VGRGGGYFDT showed 13 µM (2 of 3 replicates).

The variant GFTTDDTAMH | GISWNSGSIGYADSVK | VGMGGGYFDY gave 300 µM (3 of 3 replicates). The variant GFTTDDIAMH | GISWNSISIGYADSVK | VGRGGGYFDY gave no signal (0 of 3 replicates). With GFTSDDYAMH | GISWNSGSIGYADYVK | VGRGGGLFDY the result was 1.1 mM (1 of 3 replicates). The variant GFTDDDYHMH | GISWNSGSIGYADSVK | CGRGGGYFDY showed no signal (0 of 3 replicates). The variant GFTDDDYAMH | GHSWNSGSIGYADSVK | VGRGGGYFDY gave 7.2 µM (2 of 3 replicates). The variant GFTQDDYAMH | GISWNSGSIGYADSVI | VGPGGGYFDY showed 5.9 µM (1 of 3 replicates). With GFTDDDYAMH | WIAWNSGSIGYADSVK | VGRGGGYFDY the result was 35 µM (1 of 3 replicates).

For GFTDDDYAMH | GISWNMGSIGYADSVK | VGRGGGYFDY, the assay gave no signal (0 of 3 replicates). The variant GFTRDDYAMH | GISWNSGSCGYADSVK | DGRGGGYFDY showed 230 µM (2 of 3 replicates). With GFTVDDYASH | GISWNSGSCGYADSVK | VGRGGGYFDY the result was no signal (0 of 3 replicates). The variant GFTNDDYYMH | GISWNSGSIGYADSVK | VGRGGGYFDK showed no signal (0 of 3 replicates). The variant GFTWDDYAMH | GISWNSGSIGYADSVK | VGRGGGYQMY gave no signal (0 of 3 replicates). With GFTPDDYAMH | GISWNSGSIGYADSVK | VGRVGIYFDY the result was 8.1 µM (1 of 3 replicates). The variant GFTYDDYAMH | AISWNSGSFGYADSVK | VGRGGGYFDY gave no signal (0 of 3 replicates).

For GFTDDDYSMH | GISWNSGSIGYADSVK | VGRGGGYFSY, the assay gave 8.5 µM (3 of 3 replicates). The variant GFAHDDYAMH | GISWNSGSIGYADSVK | VPRGGGYFDY showed 49 µM (2 of 3 replicates).

Picked from the list: the 3 lowest averages where every replicate gave a value.

The variant GFTMDDYAMI | GISWNSGSIGYADSVM | VGRGGGYFDY gave 380 nM (3 of 3 replicates).
The variant GFTDDDYSMH | GISWNSGSIGYADSVK | VGRGGGYFSY gave 8.5 µM (3 of 3 replicates).
The variant GFTTDDTAMH | GISWNSGSIGYADSVK | VGMGGGYFDY gave 300 µM (3 of 3 replicates).

Data: MIT Lincoln Laboratory AlphaSeq set, Engelhart et al. 2022, doi:10.1038/s41597-022-01779-4, as distributed in FLAb.